Experimental findings from patent US4137310A, “Method for the control of cattle grubs employing a phenylene bis[imino(thio]carbonyl)diphosphor(thio)-amidic acid ester” (dated 1979) are described below.

The experiment concerns Cuterebra sp. larvae. Put plainly: Efficacy for the control of Cuterebra sp. in infested mice, dermal (dip) treatment. Particulars: dermal dip in emulsion, male mice, 48 hours after infestation, examined 4 days posttreatment; concentration that kills 90% of the larvae, log-probit.

With `CCOP(=O)(NC(=S)Nc1ccccc1NC(=S)NP(=O)(OCC)OCC)OCC`, the “Dermal (mice) Dosage LC90” value is on record as 0.15%.

Regarding `CCOP(=O)(NC(=S)Nc1ccc(NC(=S)NP(=O)(OCC)OCC)c(Cl)c1)OCC`, the “Dermal (mice) Dosage LC90” value was 0.43%.

In the case of `CCOP(=O)(NC(=S)Nc1ccc(Cl)cc1NC(=S)NP(=O)(OCC)OCC)OCC`, the “Dermal (mice) Dosage LC90” value is on record as 0.086%.
